In general, IC50 refers to the concentration needed to halve the response being measured.

Chains of the proteins cited; added tags and fusions are not shown.
UniProt O95180, whole entry: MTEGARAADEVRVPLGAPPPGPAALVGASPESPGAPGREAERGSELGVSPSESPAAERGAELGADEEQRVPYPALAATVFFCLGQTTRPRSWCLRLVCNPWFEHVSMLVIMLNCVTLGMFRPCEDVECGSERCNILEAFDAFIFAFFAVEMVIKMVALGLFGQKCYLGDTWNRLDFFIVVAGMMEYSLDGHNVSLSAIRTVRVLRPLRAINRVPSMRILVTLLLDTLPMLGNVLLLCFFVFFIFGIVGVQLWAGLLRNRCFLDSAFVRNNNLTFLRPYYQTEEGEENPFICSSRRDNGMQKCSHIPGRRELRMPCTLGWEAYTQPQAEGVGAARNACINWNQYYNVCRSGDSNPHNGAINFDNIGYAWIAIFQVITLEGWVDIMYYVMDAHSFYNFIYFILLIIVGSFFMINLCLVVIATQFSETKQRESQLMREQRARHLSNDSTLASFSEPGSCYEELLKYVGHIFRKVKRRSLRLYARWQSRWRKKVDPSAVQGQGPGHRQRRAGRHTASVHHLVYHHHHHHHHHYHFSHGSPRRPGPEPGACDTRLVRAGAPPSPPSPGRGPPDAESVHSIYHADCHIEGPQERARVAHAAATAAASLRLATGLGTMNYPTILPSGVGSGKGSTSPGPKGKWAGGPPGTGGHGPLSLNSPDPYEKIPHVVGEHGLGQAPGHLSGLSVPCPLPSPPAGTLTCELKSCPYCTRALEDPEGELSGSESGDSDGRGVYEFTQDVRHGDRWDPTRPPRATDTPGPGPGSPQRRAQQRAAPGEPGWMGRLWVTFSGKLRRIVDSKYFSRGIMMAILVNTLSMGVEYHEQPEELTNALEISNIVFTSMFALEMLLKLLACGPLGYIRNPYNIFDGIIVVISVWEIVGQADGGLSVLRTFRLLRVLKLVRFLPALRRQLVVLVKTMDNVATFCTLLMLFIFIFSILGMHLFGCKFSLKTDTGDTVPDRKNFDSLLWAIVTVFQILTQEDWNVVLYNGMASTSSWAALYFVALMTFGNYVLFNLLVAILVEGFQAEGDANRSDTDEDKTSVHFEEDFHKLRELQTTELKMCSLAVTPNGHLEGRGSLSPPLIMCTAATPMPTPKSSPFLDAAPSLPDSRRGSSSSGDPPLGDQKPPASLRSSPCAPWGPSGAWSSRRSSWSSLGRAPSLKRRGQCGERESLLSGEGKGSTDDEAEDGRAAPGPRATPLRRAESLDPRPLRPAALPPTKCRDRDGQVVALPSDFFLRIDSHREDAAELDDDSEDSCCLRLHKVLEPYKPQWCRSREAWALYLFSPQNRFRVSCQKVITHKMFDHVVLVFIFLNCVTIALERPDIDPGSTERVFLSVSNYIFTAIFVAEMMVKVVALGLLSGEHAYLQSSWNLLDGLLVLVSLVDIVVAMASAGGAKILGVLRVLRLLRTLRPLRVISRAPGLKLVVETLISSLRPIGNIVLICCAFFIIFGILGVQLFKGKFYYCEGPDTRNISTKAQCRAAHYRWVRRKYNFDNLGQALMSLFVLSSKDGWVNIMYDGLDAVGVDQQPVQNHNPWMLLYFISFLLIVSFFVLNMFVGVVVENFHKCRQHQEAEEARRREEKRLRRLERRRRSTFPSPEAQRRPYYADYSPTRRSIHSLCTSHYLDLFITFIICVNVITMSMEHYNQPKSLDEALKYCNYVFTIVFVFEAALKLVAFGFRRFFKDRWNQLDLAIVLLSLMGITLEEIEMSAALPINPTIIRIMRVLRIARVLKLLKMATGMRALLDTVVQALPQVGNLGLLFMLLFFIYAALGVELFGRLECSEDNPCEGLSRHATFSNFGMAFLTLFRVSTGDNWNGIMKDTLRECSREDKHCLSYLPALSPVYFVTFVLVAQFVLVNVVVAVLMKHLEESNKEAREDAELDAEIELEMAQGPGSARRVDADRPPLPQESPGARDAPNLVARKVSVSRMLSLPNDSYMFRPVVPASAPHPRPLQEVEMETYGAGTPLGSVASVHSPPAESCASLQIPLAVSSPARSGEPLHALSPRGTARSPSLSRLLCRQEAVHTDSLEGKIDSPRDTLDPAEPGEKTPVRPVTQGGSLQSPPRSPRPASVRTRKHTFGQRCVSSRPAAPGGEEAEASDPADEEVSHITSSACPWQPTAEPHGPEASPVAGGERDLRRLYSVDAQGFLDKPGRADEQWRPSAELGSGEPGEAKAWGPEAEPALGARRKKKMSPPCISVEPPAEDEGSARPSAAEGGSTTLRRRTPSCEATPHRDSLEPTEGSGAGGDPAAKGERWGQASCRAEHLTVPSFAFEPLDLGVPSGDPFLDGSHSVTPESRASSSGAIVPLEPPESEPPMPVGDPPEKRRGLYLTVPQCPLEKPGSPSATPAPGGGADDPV

The results in this text go back to patent US9096531B2, “Fused imidazole derivative” (TOA EIYO LTD., priority 2010, dated 2015).

Molecules are shown by their SMILES.

The target in the assay is human T-type calcium channels (human Cav3.2) (Homo sapiens, UniProt O95180). As to the kind of experiment: Intracellular calcium (Fura2 fluorescence) assay in HEK293 cells stably expressing human Cav3.2. To be noted: Fura2 fluorescence ratio after calcium chloride addition, 15 min with compound. For orientation: A change in cytosolic calcium serves as a functional read-out for many receptors and channels.

As for `Cc1ccc(COc2ccc(C(O)c3nc4cc(F)cnc4[nH]3)cc2)cc1` (stereo not shown), the IC50 came out at 140 nM.
